# Screens deposited in PubChem BioAssay by several laboratories.
# Hits are enriched below; roughly 2.1% of the tested compounds scored in any of these assays.
# UUG fidelity: alters start codon recognition fidelity in yeast; AID 602363; activity score, % at 18.7 µM; 350,000 tested, 0.13% active; S. cerevisiae UUG-firefly luciferase reporter, luminescence/redox ratio;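 active means replicate mean at a twofold rise or more, about +100% in these data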;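 further: firefly luciferase made from a UUG start codon reports start codon fidelity; reporter light over untreated wells divided by growth signal over untreated wells; some hits fall short of that in this replicate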
# GSIS activator: primary screen for activators of insulin secretion dependent on glucose, INS-1E cells, GLuc reporter luminescence; INS-1E GLuc reporter insulin secretion, 2-3 h; activation, % at 16.6 µM; actives 0.61% (n = 370,000); AID 743287;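 active means lowest replicate activation of at least 40%, so every replicate reaches that level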;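 further: 0% = median of neutral control wells and 100% = median of IBMX positive control wells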
# SMARCA2 act: activators of SMARCA2 function | MG213 cells, MMTV-luciferase reporter, dexamethasone, overnight | activation, % at 9.1 µM | actives 1% (n = 370,000) | AID 652017; in the data active means activation above about 7.8%;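 further: 0% = vehicle wells and 100% = reference activator wells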
# ERp5 block: ERp5 (human) disulfide isomerase inhibition | Q15084 | ERp5 insulin aggregation, absorbance 650 nm, 90 min | inhibition, % at 9.99 µM | actives 0.05% (n = 350,000) | AID 651711;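 active means mean replicate inhibition above about 25%, with every replicate also reaching it, limit read from the data, passing the limit was not always enough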
# PDI inh: PDI (human) enzyme inhibition. P07237. PDI insulin aggregation turbidity, A650, 90 min. inhibition, % at 10 µM. actives 0.052% (n = 350,000). AID 588391;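 active means mean inhibition across replicates of 30% or more, whatever share of single replicates reach that level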
# Rev-erbA mod: modulates human Rev-erb alpha binding to DNA; P20393; activity, % at 10 µM; actives 0.79% (n = 370,000); Rev-erbα–FITC-DNA binding, fluorescence polarization, 90 min;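 active means activity above about 14%, limit read from the data; passing the limit was not always enough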;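 further: 0% = DMSO wells with 35 nM protein and 100% = DMSO wells with 750 nM protein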
# SMARCA2 act conf: SMARCA2 activation, confirmation screen. shares compounds with SMARCA2 act. MG213 cells, MMTV-luciferase with dexamethasone, luminescence, overnight; MG213 cells expressing E1A, Rb sequestered; DMSO wells 0%, reference activator 100%. activation, % at 9.1 µM. actives 30% (n = 3,500);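 active means activation above its plate's cutoff, the mean activation of tested wells plus 3 SD, cut at about 7.9% in these data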
# VP16 Luc act: GAL4-VP16 reporter activation counter-screen; activation, % at 9.1 µM; HEK293 GAL4-VP16 pG5luc reporter, luciferase luminescence; scaled: DMSO wells 0%, SAHA wells 100%; shares compounds with SMARCA2 act; actives 41% (n = 3,500);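 active means activation above the solvent-only control well mean plus 3 SD, averaged across control plates, cut at about 5.2% in these data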
# * marks the source's active call; other numbers are inactive results; · = not tested or not shown.
# Screens by letter – A = UUG fidelity; B = GSIS activator; C = SMARCA2 act; D = ERp5 block; E = PDI inh; F = Rev-erbA mod; G = SMARCA2 act conf; H = VP16 Luc act
mol: C=CCN1C(=O)[C@@H](CC(=O)NCCCN2CCCC2=O)[C@]2(C(=O)OC)CCCCC=C12
  A = ·; B = ·; C = 8.7*; D = ·; E = ·; F = 5; G = -1; H = -2
mol: Cc1nn(C)cc1NC(=O)C[C@@H]1CC[C@H]2[C@H](COc3ccc(NC(=O)C4CCC4)cc3C(=O)N2C)O1
  A = ·; B = 2; C = ·; D = ·; E = ·; F = ·; G = ·; H = ·
mol: Cc1ccc(-c2nnc(SCC(C)C)n2C)cc1
  A = -14; B = ·; C = 0; D = ·; E = -7; F = 3; G = ·; H = ·
mol: CC(C)CSc1nnc(-c2ccco2)n1C
  A = ·; B = ·; C = 8.4*; D = ·; E = ·; F = 3; G = 8.9*; H = 2
mol: CCOC(CN=c1nc(N(C)C)ss1)OCC
  A = ·; B = -21; C = 14*; D = -2; E = -3; F = 0; G = 5; H = 5.7*
mol: CN(C)c1nc(=NCc2ccco2)ss1
  A = -18; B = ·; C = ·; D = ·; E = 0; F = ·; G = ·; H = ·
mol: C/C(=N\NC(=S)Nc1ccc(F)cc1)c1ccc2c(c1)OCCO2
  A = -36; B = 9; C = 2; D = 2; E = 0; F = -7; G = ·; H = ·
mol: C/C(=N/NC(=O)c1ccc2c(c1)OCO2)c1ccc(NC(=O)c2ccc(F)cc2)cc1
  A = -4; B = -7; C = 8.3*; D = -10; E = -11; F = 3; G = 6; H = 7.2*
mol: Cc1oc(C(C)(C)C)cc1C(=O)NCc1ccc2c(c1)OCO2
  A = -38; B = ·; C = 8.8*; D = -5; E = -1; F = 1; G = 3; H = 0
mol: COc1ccccc1NC(=O)C[C@H]1CC[C@H]2[C@@H](COc3ccc(NC(C)=O)cc3C(=O)N2C)O1
  A = ·; B = 4; C = ·; D = 20; E = ·; F = ·; G = ·; H = ·
mol: O=C(N/N=C/c1ccc(OC(=O)c2ccccc2)cc1)c1cccc(O)c1
  A = ·; B = -13; C = 10.0*; D = 6; E = 5; F = 1; G = 4; H = 0
mol: CSc1ccc(/C=N/NC(=O)c2cc(O)cc(O)c2)cc1
  A = -14; B = 8; C = 9.3*; D = ·; E = -7; F = 6; G = 9.4*; H = 5.4*
mol: CSc1ccc(/C=N/NC(=O)c2ccc(C)c(C)c2)cc1
  A = -12; B = -9; C = 0; D = ·; E = -4; F = -10; G = ·; H = ·
mol: C[C@@H]1CC(=O)NCC/C=C\C[C@@H](c2ccc3c(c2)OCO3)NC1=O
  A = ·; B = -1; C = ·; D = ·; E = ·; F = ·; G = ·; H = ·
mol: COc1ccc(/C=N/Nc2nccnc2Cl)cc1
  A = -45; B = ·; C = 8.7*; D = ·; E = 6; F = -2; G = 5; H = 12*

# Screens by letter – A = UUG fidelity; B = GSIS activator; C = SMARCA2 act; D = ERp5 block; E = PDI inh; F = Rev-erbA mod; G = SMARCA2 act conf; H = VP16 Luc act
mol: Clc1nccnc1N/N=C/c1ccc(Br)cc1
  A = -59; B = -3; C = 2; D = -1; E = 5; F = 7; G = ·; H = ·
mol: CO[C@H]1CN(C)C(=O)c2cc(NC(=O)c3ccccc3F)ccc2OC[C@H](C)N(C(C)=O)C[C@H]1C
  A = ·; B = 8; C = ·; D = 2; E = ·; F = ·; G = ·; H = ·
mol: Cc1nnc(Sc2cc(NCCO)c([N+](=O)[O-])c3nonc23)s1
  A = ·; B = 6; C = 5; D = -7; E = -4; F = 2; G = ·; H = ·
mol: Cc1nnc(Sc2cc(NCCCO)c([N+](=O)[O-])c3nonc23)s1
  A = ·; B = 75*; C = 10*; D = 0; E = 0; F = -6; G = -14; H = 1
mol: CC(=O)N1[C@@H]2CN(S(C)(=O)=O)C[C@H]1C2c1ccccc1 (stereo partly drawn)
  A = ·; B = 0; C = ·; D = ·; E = ·; F = ·; G = ·; H = ·
mol: COc1ccccc1N=Cc1nc(-c2ccccc2)oc1OC(C)=O
  A = 4; B = ·; C = -9; D = ·; E = -4; F = -1; G = ·; H = ·
mol: CC(=O)Oc1oc(-c2ccccc2)nc1/C=N/c1ccccn1
  A = -14; B = -7; C = 8.1*; D = 4; E = -3; F = -5; G = 6; H = 8.1*
mol: Cn1cc(S(=O)(=O)Cc2ccc(F)cc2)c2ccccc21
  A = -12; B = 6; C = 8.2*; D = 4; E = ·; F = -2; G = -3; H = 0
mol: N=C1C(c2nc3ccccc3[nH]2)=C(O)CN1c1ccccc1
  A = -3; B = 3; C = 8.2*; D = ·; E = -11; F = -2; G = 9.0*; H = 7.4*
mol: C[C@@H]1CN([C@@H](C)CO)C(=O)c2cccc(N(C)C)c2O[C@H]1CN(C)S(C)(=O)=O
  A = -8; B = 13; C = ·; D = -5; E = ·; F = ·; G = ·; H = ·
mol: C[C@H](CO)N1C[C@H](C)[C@H](CN(C)C(=O)Nc2cccc3ccccc23)OCCCC[C@H](C)Oc2ccc(NS(=O)(=O)c3cn(C)cn3)cc2C1=O
  A = -1; B = -9; C = ·; D = ·; E = ·; F = ·; G = ·; H = ·
mol: CSc1ccc(-c2cc(=O)c3ccccc3o2)cc1
  A = -2; B = -14; C = 12*; D = -6; E = 1; F = 0; G = 6; H = 12*
mol: Cc1ccccc1-c1cc(=O)c2ccccc2o1
  A = -8; B = 16; C = 2; D = -1; E = -1; F = 1; G = ·; H = ·
mol: O=c1cc(-c2ccccc2F)oc2ccccc12
  A = -22; B = ·; C = 13*; D = ·; E = -6; F = 2; G = 6; H = 7.7*
mol: O=c1cc(-c2ccc(F)cc2)oc2ccccc12
  A = ·; B = ·; C = 5; D = ·; E = -8; F = -1; G = ·; H = ·

# Screens by letter – A = UUG fidelity; B = GSIS activator; C = SMARCA2 act; D = ERp5 block; E = PDI inh; F = Rev-erbA mod; G = SMARCA2 act conf; H = VP16 Luc act
mol: COc1ccccc1-c1ccc([C@@H]2[C@@H](CO)N(C(=O)CN(C)C)[C@H]2C#N)cc1
  A = ·; B = -2; C = ·; D = 1; E = ·; F = ·; G = ·; H = ·
mol: Cc1cc(C)c(NN=c2c(=O)c3ccccc3c2=O)c(C)c1
  A = 6; B = ·; C = 7; D = ·; E = -9; F = 0; G = ·; H = ·
mol: O=c1c(=NNc2ccccc2Cl)c(=O)c2ccccc12
  A = -18; B = -1; C = 8.4*; D = 3; E = -9; F = ·; G = 0; H = 5
mol: COc1ccc(-c2nnc(N)s2)cc1
  A = -29; B = ·; C = 5; D = ·; E = -3; F = -1; G = ·; H = ·
mol: CCCOc1ccc(-c2nnc(N)s2)cc1
  A = -6; B = ·; C = 9.6*; D = ·; E = 0; F = -4; G = 11*; H = 8.0*
mol: CCCCOC(=O)Nc1ccc(N2CCOCC2)cc1
  A = -9; B = ·; C = 10*; D = ·; E = -4; F = -3; G = 9.8*; H = 5.7*
mol: COc1ccc2nc(-c3ccco3)c(-c3ccco3)nc2c1
  A = -19; B = -57; C = 11*; D = 0; E = 2; F = ·; G = -7; H = 9.2*
mol: CC(C)(C)N1C(=O)c2ccccc2NC(=O)N1Cc1ccccc1
  A = -14; B = ·; C = 4; D = ·; E = -1; F = -2; G = ·; H = ·
mol: CC(C)(C)N1NC(=O)Nc2ccccc2C1=O
  A = -6; B = ·; C = 9.6*; D = ·; E = 6; F = -1; G = -3; H = 0
mol: O=c1cc(N/N=C/c2ccccc2)[nH]c(=O)[nH]1
  A = -10; B = 20; C = -4; D = 2; E = 7; F = 8; G = ·; H = ·
mol: O=c1nccc(N/N=C/c2ccccc2)[nH]1
  A = -14; B = 5; C = 8.2*; D = 3; E = -3; F = 1; G = 6; H = 4
mol: Cc1ccc(C(=O)c2sc3nc4c(cc3c2N)CCC4)cc1
  A = -10; B = 74*; C = 9.1*; D = ·; E = -7; F = -4; G = 8.4*; H = 8.3*
mol: O=C(Cc1ccccc1)N1CCc2ccccc21
  A = -23; B = 7; C = 4; D = 0; E = 4; F = 8; G = ·; H = ·
mol: O=C(CS(=O)(=O)c1ccccc1)N1CCc2ccccc21
  A = ·; B = -11; C = 10*; D = 4; E = -8; F = 5; G = 8.5*; H = 9.8*
mol: O=C(CSC1=NCCS1)N1CCc2ccccc21
  A = -29; B = ·; C = 8.1*; D = ·; E = -2; F = -2; G = 12*; H = 8.4*

# Exported with each value named: entries from further up.
O=C(CSC1=NCCS1)N1CCc2ccccc21
  UUG fidelity: -29	GSIS activator: ·	SMARCA2 act: 8.1*	ERp5 block: ·	PDI inh: -2	Rev-erbA mod: -2	SMARCA2 act conf: 12*	VP16 Luc act: 8.4*

COc1ccc(/C=N/Nc2nccnc2Cl)cc1
  UUG fidelity: -45	GSIS activator: ·	SMARCA2 act: 8.7*	ERp5 block: ·	PDI inh: 6	Rev-erbA mod: -2	SMARCA2 act conf: 5	VP16 Luc act: 12*

# Additional results follow:
# Screens by letter – A = UUG fidelity; B = GSIS activator; C = SMARCA2 act; D = ERp5 block; E = PDI inh; F = Rev-erbA mod; G = SMARCA2 act conf; H = VP16 Luc act
mol: COc1ccc(CNC(=O)CN=C2NC(=O)C(c3ccccc3)(c3ccccc3)N2)cc1
  A = -19; B = -21; C = 12*; D = ·; E = -4; F = 3; G = 0; H = 0
mol: O=C(CCN1CCCCC1)NCC[C@H]1CC[C@H](NC(=O)C2CC2)[C@H](CO)O1
  A = 0; B = 24; C = ·; D = 3; E = ·; F = ·; G = ·; H = ·
mol: O=C(COC(=O)c1cccnc1Cl)Nc1nc(-c2ccccc2)cs1
  A = ·; B = -9; C = 9.9*; D = ·; E = -15; F = 2; G = 1; H = 2
mol: COC(=O)C1C(=O)c2c([nH]c(C(=O)OC3CCCC3)c2C)CC1C (stereo not drawn)
  A = -18; B = ·; C = 8.2*; D = ·; E = 3; F = -6; G = 7; H = 8.4*
